Measurements reported in article PMC11472320, “Computationally Driven Discovery of a BCR-ABL1 Kinase Inhibitor with Activity in Multidrug-Resistant Chronic Myeloid Leukemia” (Journal of Medicinal Chemistry, 2024).

Chains of the proteins cited; added tags and fusions are not shown. Lines headed by an entry give the natural chain unless they say otherwise; changes in a name come on top. Residues count along the entry.
UniProt P50750, whole entry: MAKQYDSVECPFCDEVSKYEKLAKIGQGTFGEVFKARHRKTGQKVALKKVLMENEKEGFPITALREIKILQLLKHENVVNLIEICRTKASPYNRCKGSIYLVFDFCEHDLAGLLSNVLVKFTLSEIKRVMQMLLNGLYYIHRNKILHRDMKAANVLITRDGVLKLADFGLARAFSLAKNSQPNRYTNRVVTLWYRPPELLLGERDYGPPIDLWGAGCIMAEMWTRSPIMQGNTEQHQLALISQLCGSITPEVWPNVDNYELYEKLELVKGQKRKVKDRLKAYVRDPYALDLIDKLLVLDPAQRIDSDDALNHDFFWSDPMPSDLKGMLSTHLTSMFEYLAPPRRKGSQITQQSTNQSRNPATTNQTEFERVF
UniProt P53355: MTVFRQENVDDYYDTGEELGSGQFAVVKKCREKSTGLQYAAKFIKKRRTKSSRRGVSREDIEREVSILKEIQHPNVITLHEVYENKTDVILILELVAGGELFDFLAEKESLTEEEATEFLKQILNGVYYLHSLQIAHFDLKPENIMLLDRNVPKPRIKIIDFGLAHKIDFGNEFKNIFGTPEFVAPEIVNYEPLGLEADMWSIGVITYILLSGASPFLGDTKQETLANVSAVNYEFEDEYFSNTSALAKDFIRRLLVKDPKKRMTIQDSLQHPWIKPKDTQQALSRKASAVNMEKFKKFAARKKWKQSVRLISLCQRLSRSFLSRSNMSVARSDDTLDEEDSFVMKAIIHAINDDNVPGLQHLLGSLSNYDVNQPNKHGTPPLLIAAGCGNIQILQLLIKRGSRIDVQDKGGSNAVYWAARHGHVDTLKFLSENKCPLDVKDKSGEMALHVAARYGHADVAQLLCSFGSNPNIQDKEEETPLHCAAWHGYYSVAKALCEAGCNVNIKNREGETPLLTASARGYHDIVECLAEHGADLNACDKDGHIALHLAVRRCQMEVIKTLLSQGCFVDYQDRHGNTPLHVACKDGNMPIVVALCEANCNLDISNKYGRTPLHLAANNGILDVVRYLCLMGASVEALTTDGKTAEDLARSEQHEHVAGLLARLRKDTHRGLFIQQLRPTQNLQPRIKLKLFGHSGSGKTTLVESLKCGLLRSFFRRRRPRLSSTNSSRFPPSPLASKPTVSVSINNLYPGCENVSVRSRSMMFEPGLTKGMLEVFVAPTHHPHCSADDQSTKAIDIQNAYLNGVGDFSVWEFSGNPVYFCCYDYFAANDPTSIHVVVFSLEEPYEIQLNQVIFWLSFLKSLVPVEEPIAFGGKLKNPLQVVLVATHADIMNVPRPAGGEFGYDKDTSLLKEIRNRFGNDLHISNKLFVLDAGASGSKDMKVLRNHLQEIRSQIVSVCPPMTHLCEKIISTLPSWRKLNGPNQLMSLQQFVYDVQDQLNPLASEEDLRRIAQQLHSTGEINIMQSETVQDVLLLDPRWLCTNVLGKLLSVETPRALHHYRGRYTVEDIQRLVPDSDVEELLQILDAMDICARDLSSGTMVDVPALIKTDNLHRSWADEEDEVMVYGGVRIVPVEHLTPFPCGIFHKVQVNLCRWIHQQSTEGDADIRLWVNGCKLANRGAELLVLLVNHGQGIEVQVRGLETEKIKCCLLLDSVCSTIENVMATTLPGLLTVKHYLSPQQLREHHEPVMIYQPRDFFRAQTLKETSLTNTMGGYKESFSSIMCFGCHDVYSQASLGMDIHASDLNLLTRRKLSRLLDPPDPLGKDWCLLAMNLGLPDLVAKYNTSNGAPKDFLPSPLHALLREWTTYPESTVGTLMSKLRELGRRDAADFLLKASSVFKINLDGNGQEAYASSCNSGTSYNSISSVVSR
UniProt P54764, 20-986: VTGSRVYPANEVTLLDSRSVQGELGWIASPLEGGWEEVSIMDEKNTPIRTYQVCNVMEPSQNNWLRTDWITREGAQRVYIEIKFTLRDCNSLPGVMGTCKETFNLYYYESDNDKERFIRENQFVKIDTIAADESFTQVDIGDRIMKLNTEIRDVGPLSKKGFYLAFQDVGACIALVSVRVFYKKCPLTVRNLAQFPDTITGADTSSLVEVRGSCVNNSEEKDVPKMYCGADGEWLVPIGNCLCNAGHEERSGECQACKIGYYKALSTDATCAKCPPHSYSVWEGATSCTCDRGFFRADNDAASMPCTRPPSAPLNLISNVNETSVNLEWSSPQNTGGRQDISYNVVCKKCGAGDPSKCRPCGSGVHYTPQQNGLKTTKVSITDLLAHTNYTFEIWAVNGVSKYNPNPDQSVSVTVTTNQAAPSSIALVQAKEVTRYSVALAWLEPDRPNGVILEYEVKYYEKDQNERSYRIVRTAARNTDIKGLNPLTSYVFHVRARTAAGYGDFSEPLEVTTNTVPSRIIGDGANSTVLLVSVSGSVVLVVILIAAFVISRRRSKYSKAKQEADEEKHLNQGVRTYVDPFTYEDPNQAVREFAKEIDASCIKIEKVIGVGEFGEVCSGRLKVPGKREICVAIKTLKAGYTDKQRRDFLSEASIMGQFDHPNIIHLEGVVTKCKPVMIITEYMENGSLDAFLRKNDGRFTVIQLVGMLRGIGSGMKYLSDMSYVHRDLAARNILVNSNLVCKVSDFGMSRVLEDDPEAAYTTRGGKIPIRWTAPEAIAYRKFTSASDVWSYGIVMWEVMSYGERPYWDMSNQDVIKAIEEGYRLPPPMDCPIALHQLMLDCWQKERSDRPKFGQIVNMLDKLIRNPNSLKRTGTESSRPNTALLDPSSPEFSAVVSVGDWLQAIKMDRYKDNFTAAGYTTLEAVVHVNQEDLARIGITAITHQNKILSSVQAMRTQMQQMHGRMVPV
UniProt P31152, whole entry: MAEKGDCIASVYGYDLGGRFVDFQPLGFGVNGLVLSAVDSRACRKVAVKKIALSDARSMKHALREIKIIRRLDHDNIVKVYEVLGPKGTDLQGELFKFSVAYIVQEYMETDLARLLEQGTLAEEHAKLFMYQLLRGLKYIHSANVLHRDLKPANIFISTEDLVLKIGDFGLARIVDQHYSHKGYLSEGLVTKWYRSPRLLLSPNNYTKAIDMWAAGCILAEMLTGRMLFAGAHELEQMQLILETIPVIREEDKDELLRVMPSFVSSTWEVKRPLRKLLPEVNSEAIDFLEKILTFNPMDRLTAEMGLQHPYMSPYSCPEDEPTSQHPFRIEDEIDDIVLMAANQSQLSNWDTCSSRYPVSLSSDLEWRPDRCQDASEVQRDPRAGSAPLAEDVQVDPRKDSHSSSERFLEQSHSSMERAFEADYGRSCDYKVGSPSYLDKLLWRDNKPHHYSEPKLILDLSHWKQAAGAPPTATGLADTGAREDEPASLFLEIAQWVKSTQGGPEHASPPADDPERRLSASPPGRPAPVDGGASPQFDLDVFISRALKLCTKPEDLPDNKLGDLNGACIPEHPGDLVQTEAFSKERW
UniProt O60674, 849-1124 limits assumed: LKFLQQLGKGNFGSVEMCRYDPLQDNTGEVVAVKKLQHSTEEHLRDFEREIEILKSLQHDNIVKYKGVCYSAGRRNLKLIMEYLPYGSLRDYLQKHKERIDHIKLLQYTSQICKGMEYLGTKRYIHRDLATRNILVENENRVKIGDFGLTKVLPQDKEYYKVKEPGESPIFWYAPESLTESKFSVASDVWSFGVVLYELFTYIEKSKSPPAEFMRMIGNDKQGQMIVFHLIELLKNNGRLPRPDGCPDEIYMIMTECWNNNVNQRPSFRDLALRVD
UniProt P42336, whole entry M1043I: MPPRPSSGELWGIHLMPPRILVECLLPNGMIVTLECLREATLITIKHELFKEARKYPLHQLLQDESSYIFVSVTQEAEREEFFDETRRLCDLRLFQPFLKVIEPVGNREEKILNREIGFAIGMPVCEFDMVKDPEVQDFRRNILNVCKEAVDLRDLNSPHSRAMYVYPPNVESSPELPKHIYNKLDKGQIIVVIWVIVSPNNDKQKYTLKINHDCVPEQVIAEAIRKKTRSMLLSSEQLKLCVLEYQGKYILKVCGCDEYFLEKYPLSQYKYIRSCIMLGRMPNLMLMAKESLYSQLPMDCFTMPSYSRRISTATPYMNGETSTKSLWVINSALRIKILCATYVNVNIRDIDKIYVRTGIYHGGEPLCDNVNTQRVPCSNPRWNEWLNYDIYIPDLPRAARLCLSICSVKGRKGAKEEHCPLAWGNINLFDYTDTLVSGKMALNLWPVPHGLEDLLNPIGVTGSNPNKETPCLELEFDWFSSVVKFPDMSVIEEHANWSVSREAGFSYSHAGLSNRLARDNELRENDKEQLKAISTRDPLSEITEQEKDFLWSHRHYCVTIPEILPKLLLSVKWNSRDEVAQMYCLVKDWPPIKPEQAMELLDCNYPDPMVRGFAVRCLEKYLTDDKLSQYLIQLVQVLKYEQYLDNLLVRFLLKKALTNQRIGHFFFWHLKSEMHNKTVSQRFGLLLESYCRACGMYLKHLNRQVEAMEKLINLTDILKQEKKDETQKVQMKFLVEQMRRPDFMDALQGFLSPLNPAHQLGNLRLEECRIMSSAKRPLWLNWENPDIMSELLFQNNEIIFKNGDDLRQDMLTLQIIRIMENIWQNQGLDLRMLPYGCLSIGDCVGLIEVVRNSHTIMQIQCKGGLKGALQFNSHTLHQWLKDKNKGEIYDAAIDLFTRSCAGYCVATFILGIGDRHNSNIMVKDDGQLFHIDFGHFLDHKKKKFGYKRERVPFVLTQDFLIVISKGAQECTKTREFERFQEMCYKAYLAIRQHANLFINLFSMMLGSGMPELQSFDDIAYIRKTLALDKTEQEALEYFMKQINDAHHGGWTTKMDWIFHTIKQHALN
UniProt P42336, whole entry Q546K: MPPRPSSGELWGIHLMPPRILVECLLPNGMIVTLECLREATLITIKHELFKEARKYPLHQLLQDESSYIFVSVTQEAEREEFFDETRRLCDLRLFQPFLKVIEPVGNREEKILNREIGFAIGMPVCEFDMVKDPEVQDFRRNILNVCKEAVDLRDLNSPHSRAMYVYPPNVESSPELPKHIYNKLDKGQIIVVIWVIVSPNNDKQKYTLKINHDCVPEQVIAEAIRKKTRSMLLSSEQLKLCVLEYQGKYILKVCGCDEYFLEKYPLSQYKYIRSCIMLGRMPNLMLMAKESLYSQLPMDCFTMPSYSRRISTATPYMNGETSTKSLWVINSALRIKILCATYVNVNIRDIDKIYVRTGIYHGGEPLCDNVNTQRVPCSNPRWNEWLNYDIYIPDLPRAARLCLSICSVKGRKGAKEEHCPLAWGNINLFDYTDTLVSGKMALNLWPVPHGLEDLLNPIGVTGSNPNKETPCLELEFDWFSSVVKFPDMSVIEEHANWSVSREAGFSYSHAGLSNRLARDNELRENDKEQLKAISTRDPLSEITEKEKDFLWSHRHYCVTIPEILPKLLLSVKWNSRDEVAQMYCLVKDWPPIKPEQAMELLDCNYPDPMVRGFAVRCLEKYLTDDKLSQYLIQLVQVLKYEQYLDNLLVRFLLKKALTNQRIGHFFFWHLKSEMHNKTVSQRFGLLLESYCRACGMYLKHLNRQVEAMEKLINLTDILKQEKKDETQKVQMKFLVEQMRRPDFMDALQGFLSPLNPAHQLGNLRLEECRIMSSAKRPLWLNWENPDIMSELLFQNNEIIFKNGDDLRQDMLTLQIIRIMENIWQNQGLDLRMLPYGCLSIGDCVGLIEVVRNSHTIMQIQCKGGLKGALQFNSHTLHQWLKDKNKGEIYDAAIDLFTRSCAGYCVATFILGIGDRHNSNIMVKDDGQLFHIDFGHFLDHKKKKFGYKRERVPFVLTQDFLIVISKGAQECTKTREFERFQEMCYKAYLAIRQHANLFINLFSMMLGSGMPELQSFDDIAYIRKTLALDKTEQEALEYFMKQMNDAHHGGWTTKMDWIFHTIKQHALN
UniProt O14730: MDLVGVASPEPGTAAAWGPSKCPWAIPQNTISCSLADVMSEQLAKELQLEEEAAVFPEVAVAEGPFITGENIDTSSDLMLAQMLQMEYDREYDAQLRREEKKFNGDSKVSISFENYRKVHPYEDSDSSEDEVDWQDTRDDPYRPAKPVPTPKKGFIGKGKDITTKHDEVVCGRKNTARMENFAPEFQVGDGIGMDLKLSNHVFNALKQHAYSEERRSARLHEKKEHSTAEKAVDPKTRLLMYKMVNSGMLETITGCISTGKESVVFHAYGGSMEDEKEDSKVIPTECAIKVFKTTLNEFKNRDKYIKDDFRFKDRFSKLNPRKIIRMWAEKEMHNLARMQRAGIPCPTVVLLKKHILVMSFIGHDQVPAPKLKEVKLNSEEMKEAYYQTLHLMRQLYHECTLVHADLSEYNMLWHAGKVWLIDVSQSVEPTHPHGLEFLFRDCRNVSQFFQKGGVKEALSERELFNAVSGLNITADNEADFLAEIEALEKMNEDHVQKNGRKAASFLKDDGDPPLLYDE
UniProt O75676, 33-301 limits assumed: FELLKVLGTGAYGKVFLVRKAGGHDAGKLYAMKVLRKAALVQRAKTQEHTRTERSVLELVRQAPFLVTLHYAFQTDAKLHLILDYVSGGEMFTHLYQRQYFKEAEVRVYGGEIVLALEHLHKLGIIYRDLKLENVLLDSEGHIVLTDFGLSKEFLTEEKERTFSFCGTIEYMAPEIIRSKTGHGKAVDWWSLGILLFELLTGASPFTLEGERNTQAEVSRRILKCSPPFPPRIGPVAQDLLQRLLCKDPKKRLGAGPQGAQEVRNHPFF

Experiments:
AAK1 = AAK1 (Homo sapiens, UniProt Q2M2I8); assay: biochemical; conditions: read-out: Percent Control
AKT1 = AKT1 (Homo sapiens, UniProt P31749); assay: biochemical; conditions: read-out: Percent Control
ALK = ALK (Homo sapiens, UniProt Q9UM73); assay: biochemical; conditions: read-out: Percent Control
BRSK2 = BRSK2 (Homo sapiens, UniProt Q8IWQ3); assay: biochemical; conditions: read-out: Percent Control
BUB1 = BUB1 (Homo sapiens, UniProt O43683); assay: biochemical; conditions: read-out: Percent Control
CAMKK1 = CAMKK1 (Homo sapiens, UniProt Q8N5S9); assay: biochemical; conditions: read-out: Percent Control
CDK9 = CDK9 (Homo sapiens, UniProt P50750); assay: biochemical; conditions: read-out: Percent Control
CSNK2A1 = CSNK2A1 (Homo sapiens, UniProt P68400); assay: biochemical; conditions: read-out: Percent Control
DAPK1 = DAPK1 (Homo sapiens, UniProt P53355); assay: biochemical; conditions: read-out: Percent Control
DRAK2 = DRAK2 (Homo sapiens, UniProt O94768); assay: biochemical; conditions: read-out: Percent Control
EGFR(E746-A750del) = EGFR(E746-A750del) (Homo sapiens, UniProt P00533, DEL746-750); assay: biochemical; conditions: read-out: Percent Control
EGFR(G719S) = EGFR(G719S) (Homo sapiens, UniProt P00533, G719S); assay: biochemical; conditions: read-out: Percent Control
EPHA4 = EPHA4 (Homo sapiens, UniProt P54764); assay: biochemical; conditions: read-out: Percent Control
EPHA8 = EPHA8 (Homo sapiens, UniProt P29322); assay: biochemical; conditions: read-out: Percent Control
ERK4 = ERK4 (Homo sapiens, UniProt P31152); assay: biochemical; conditions: read-out: Percent Control
ERN 1.00 = ERN 1.00 (Homo sapiens, UniProt O75460); assay: biochemical; conditions: read-out: Percent Control
FLT3 = FLT3 (Homo sapiens, UniProt P36888); assay: biochemical; conditions: read-out: Percent Control
GSK3B = GSK3B (Homo sapiens, UniProt P49841); assay: biochemical; conditions: read-out: Percent Control
HUNK = HUNK (Homo sapiens, UniProt P57058); assay: biochemical; conditions: read-out: Percent Control
IRAK1 = IRAK1 (Homo sapiens, UniProt P51617); assay: biochemical; conditions: read-out: Percent Control
[1] = target: JAK2(JH1domain-catalytic) (Homo sapiens, UniProt O60674); assay: biochemical; conditions: read-out: Percent Control
MARK3 = MARK3 (Homo sapiens, UniProt P27448); assay: biochemical; conditions: read-out: Percent Control
MARK4 = MARK4 (Homo sapiens, UniProt Q96L34); assay: biochemical; conditions: read-out: Percent Control
MEK1 = MEK1 (Homo sapiens, UniProt Q02750); assay: biochemical; conditions: read-out: Percent Control
MEK5 = MEK5 (Homo sapiens, UniProt Q13163); assay: biochemical; conditions: read-out: Percent Control
NEK1 = NEK1 (Homo sapiens, UniProt Q96PY6); assay: biochemical; conditions: read-out: Percent Control
NEK11 = NEK11 (Homo sapiens, UniProt Q8NG66); assay: biochemical; conditions: read-out: Percent Control
NEK9 = NEK9 (Homo sapiens, UniProt Q8TD19); assay: biochemical; conditions: read-out: Percent Control
PAK2 = PAK2 (Homo sapiens, UniProt Q13177); assay: biochemical; conditions: read-out: Percent Control
PDPK1 = PDPK1 (Homo sapiens, UniProt O15530); assay: biochemical; conditions: read-out: Percent Control
PIK3CA(M1043I) = PIK3CA(M1043I) (Homo sapiens, UniProt P42336, M1043I); assay: biochemical; conditions: read-out: Percent Control
PIK3CA(Q546K) = PIK3CA(Q546K) (Homo sapiens, UniProt P42336, Q546K); assay: biochemical; conditions: read-out: Percent Control
PKN2 = PKN2 (Homo sapiens, UniProt Q16513); assay: biochemical; conditions: read-out: Percent Control
PRKX = PRKX (Homo sapiens, UniProt P51817); assay: biochemical; conditions: read-out: Percent Control
RET(V804L) = RET(V804L) (Homo sapiens, UniProt P07949, V804L); assay: biochemical; conditions: read-out: Percent Control
RIOK3 = RIOK3 (Homo sapiens, UniProt O14730); assay: biochemical; conditions: read-out: Percent Control
[2] = target: RPS6KA4(Kin.Dom.1-N-terminal) (Homo sapiens, UniProt O75676); assay: biochemical; conditions: read-out: Percent Control
SRPK2 = SRPK2 (Homo sapiens, UniProt P78362); assay: biochemical; conditions: read-out: Percent Control
TLK2 = TLK2 (Homo sapiens, UniProt Q86UE8); assay: biochemical; conditions: read-out: Percent Control
TNK2 = TNK2 (Homo sapiens, UniProt Q07912); assay: biochemical; conditions: read-out: Percent Control
TTK = TTK (Homo sapiens, UniProt P33981); assay: biochemical; conditions: read-out: Percent Control
YANK3 = YANK3 (Homo sapiens, UniProt Q86UX6); assay: biochemical; conditions: read-out: Percent Control

Question: Which results are given for COc1cc2c(Nc3ccc(Cl)c(OC)n3)c(C#N)cnc2cc1OCCON1CCN(C)CC1 [16a, 4-((5-Chloro-6-methoxypyridin-2-yl)amino)-6-methoxy-7-(2-((4-methylpiperazin-1-yl)oxy)ethoxy)quinoline-3-carbonitrile]?
Answer: Percent Control (FLT3(ITD)): 32; remaining activity at 1 µM (AAK1): 6.8%; remaining activity at 1 µM (AKT1): 100%; remaining activity at 1 µM (ALK): 76%; remaining activity at 1 µM (BRSK2): 87%; remaining activity at 1 µM (BUB1): 100%; remaining activity at 1 µM (CAMKK1): 47%; remaining activity at 1 µM (CDK9): 100%; remaining activity at 1 µM (CSNK2A1): 100%; remaining activity at 1 µM (DAPK1): 50%; remaining activity at 1 µM (DRAK2): 100%; remaining activity at 1 µM (EGFR(E746-A750del)): 0%; remaining activity at 1 µM (EGFR(G719S)): 0.3%; remaining activity at 1 µM (EPHA4): 7%; remaining activity at 1 µM (EPHA8): 1.1%; remaining activity at 1 µM (ERK4): 78%; remaining activity at 1 µM (ERN 1.00): 100%; remaining activity at 1 µM (FLT3): 27%; remaining activity at 1 µM (GSK3B): 100%; remaining activity at 1 µM (HUNK): 37%; remaining activity at 1 µM (IRAK1): 73%; remaining activity at 1 µM [1]: 4.3%; remaining activity at 1 µM (MARK3): 95%; remaining activity at 1 µM (MARK4): 60%; remaining activity at 1 µM (MEK1): 0%; remaining activity at 1 µM (MEK5): 0.1%; remaining activity at 1 µM (NEK1): 62%; remaining activity at 1 µM (NEK11): 61%; remaining activity at 1 µM (NEK9): 87%; remaining activity at 1 µM (PAK2): 27%; remaining activity at 1 µM (PDPK1): 100%; remaining activity at 1 µM (PIK3CA(M1043I)): 100%; remaining activity at 1 µM (PIK3CA(Q546K)): 100%; remaining activity at 1 µM (PKN2): 48%; remaining activity at 1 µM (PRKX): 100%; remaining activity at 1 µM (RET(V804L)): 70%; remaining activity at 1 µM (RIOK3): 0.8%; remaining activity at 1 µM [2]: 95%; remaining activity at 1 µM (SRPK2): 100%; remaining activity at 1 µM (TLK2): 89%; remaining activity at 1 µM (TNK2): 2.2%; remaining activity at 1 µM (TTK): 96%; remaining activity at 1 µM (YANK3): 79%
